Experiments:
biofilm = conditions: cited from earlier work
Total microbio counts = assay: Ammonia plant water system, total microbio counts; conditions: previous chlorine program, average

## chlorine
biofilm
  effect on biofilm detachment: very poor to no effect
Total microbio counts
  Total microbio counts: approximately 15,000 organisms/ml

Source: patent publication US20120225135A1 (priority 2010, published 2012)
